Experiment: Inhibition of Plasmodium vivax recombinant N-myristoyltransferase using human pp60Src92-16 amino acids) as substrate
Details: read-out: Ki(app)
Procedure, shortened: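 Recombinant P. vivax NMT in a 96-well fluorogenic NMT assay. Values are reported as apparent Ki, mean ± SD from duplicates.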

Work on `CCCCc1c(C)nc2ccc(OC)cc2c1SCCC#N` yielded a Ki of 1730 nM.
